Measured values taken from patent publication US20070036775A1, “Method of modulating or examining Ku70 levels in cells” (priority 2001, published 2007).

System: Du145 cells
Assay: Apoptosis in Bax-deficient Du145 cells
Type: cell-based, human
Protocol: Bax-deficient Du145 cells (10^6 cells) were transfected by 1.0 μg of pcDNA3-Bax (Bax) or pcDNA3-Bax-ΔN (BaxΔN), together with 1.0 μg of pCMV-2B (Vector), pcDNA3-Myc-XIAP (XIAP), pcDNA3-Bcl-2 (Bcl-2), pcDNA3-Bcl-XL (Bcl-XL), or pCMV-2B-Ku70 wt (Ku70 wt). All the cells were also co-transfected with 0.5 μg PEGFP for the marking of transfected cells. Cells in the control group received 0.5 μg of pEGFP, 1.0 μg of pcDNA3, and 1.0 μg of pCMV-2B. One day following transfection, apoptosis was detected as described in FIG. 1. […] Du145 cells (10^6 cells) were transfected with 1.0 μg pCMV-2B (Vector), pcDNA3-Myc-XIAP (XIAP), pCMV-2B-Ku70 wt (Ku70 wt), or pCMV-2B-Ku70536-609 (Ku70536-609) together with 0.5 μg pEGFP. One day following transfection, cells were treated with 200 nM STS and the number of apoptotic cells was counted as described in FIG. 1 after 24 hours of STS treatment. In control group, 1.0 μg of pcDNA3 and pCMV-2B were transfected (Control). […] After 24 hours, apoptotic cells were counted as described in FIG. 1. […] The number of apoptotic cells was counted as described in FIG. 1. […] One day following transfection, cells were treated with 1 μg/ml anti-Fas antibody or 100 ng/ml TRAIL and the number of apoptotic cells was counted after 24 hours of anti-Fas antibody or TRAIL treatment as described in FIG. 1. […]
HEK293T cells, HeLa cells, and mouse embryonic fibroblasts (MEF) were cultured in DMEM supplemented with 10% fetal bovine serum (FBS). […] Apoptosis in the transfected cells were analyzed as follows: Plasmid encoding EGFP (0.5 ug of pEGFP) was transfected to all the groups to mark the transfected cells. One day following transfection of the plasmids listed in the figure legends or treatment of the cells with staurosporin (STS) or UVC-irradiation, cells were stained with Hoechst dye and cells with apoptotic nuclei were counted in GFP expressing cells under fluorescent microscope as previously reported (Wei, et al., 2001). […] Caspase activities of cells were measured by detecting the cleavage of fluorogenic substrate of caspase (DEVD-afc) as previously described (Deveraux, et al., 1997).

Ku70: human full length Ku70, 70 kDa subunit of Ku-complex (609 amino acids), expressed from pCMV-2B plasmid
effect on STS-induced apoptosis in Bax-deficient cells (Du145, 200 nM STS, 24 hours, Ku70 overexpression): did not suppress STS-induced apoptosis in this Bax-deficient cell line | effect on UVC-irradiation-induced cell death in Bax-deficient cells (Du145, 200 J/m^2 UVC, 24 hours): can attenuate UVC-irradiation-induced cell death regardless of Bax expression | effect on BaxΔN-induced apoptosis (Du145 cells lacking endogenous Bax): did not suppress apoptosis-inducing activity of BaxΔN
